Test results: publication PMC10407959 (Journal of medicinal chemistry, 2023)
“And” between values parts separate entries of the source, which are not always exact repeats. Identical values can stand only once.

Columns and labels:
[1] = tested on: hepG2 (human hepatoma) cell; details: read-out: hepG2 (human hepatoma) cell toxicity, IC50; ref Wen et al. 5; cited from earlier work
mP2Y14R = target: T1, mP2Y14R (Mus musculus, UniProt Q9ESG6); experiment: whole-cell fluorescent binding assay at mP2Y14R expressed in HEK-293 cells; details: mP2Y14R vs hP2Y14R
T1 sequence (Q9ESG6 1-338): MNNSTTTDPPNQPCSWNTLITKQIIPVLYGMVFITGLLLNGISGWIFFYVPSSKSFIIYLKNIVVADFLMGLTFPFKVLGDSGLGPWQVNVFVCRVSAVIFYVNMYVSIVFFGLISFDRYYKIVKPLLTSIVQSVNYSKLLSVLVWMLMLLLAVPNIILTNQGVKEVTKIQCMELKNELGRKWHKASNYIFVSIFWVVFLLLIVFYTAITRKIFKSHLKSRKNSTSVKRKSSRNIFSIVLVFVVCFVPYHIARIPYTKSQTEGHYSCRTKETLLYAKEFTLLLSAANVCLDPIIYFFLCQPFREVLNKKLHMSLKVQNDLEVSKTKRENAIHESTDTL

**Q.** What does the source list for O=C(O)c1cc(-c2ccc([C@H]3C[C@H]4C[C@@H]3CN4)cc2)c2ccc(-c3ccc(C(F)(F)F)cc3)cc2c1 [2b, 4-(4-((1S,4S,5S)-2-Azabicyclo[2.2.1]heptan-5-yl)phenyl)-7-(4-(trifluoromethyl)phenyl)-2-naphthoic Acid]?
**A.** IC50 [1]: 11 µM; IC50 ratio (mouse/human) (mP2Y14R): 11 and 10.9
